Assay results reported in ChEMBL document CHEMBL5344430, “Targeting the Translocator Protein (18 kDa) in Cardiac Diseases: State of the Art and Future Opportunities” (J Med Chem, 2024).

By UniProt entry, the sequences of proteins in these tests, tags left out.
UniProt P30536, whole entry: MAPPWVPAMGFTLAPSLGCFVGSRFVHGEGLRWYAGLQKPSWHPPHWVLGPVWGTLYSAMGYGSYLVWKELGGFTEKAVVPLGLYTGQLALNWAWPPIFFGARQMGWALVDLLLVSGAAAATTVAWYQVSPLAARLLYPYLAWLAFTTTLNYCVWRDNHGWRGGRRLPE

Target: Translocator protein (Homo sapiens, UniProt P30536)

Ki: 2.1 nM
SMILES: CC[C@@H](C)N([11CH3])C(=O)c1cc2ccccc2c(-c2ccccc2Cl)n1
